Reference: patent US20040138119A1
pKd: −log10 of the molar value.

Target: purified recombinant Survivin (untagged) (human) (UniProt O15392)
Experiment: Scatchard analysis of His6-HBXIP binding to purified untagged Survivin

His6-HBXIP (from UniProt O43504 1-91) (other; other documents disagree on this pair)
pKd: 6.34
